The structures appear in SMILES notation.

This test concerns hippocampal slices. Conditions: about 25 mM; in words.

Regarding `[H]/N=C(/N)N[C@H]1[C@H](O)[C@@H](O)[C@H](O[C@@H]2O[C@@H](C)[C@](O)(C=O)[C@H]2O[C@@H]2O[C@@H](CO)[C@H](O)[C@@H](O)[C@@H]2NC)[C@@H](N/C(N)=N\[H])[C@@H]1O` [Streptomycin], the “protection of hippocampal slices” value is on record as “moderately effective”.

Source of the values: patent publication US5677288A, “Use of aminoglycosides to protect against excitotoxic neuron damage” (Cypros Pharmaceutical Corporation, priority 1994, dated 1997).
